Measured values published in patent publication US8008290B2, “Compounds” (priority 2009, dated 2011).

The chains behind the UniProt entries cited, without tags or fusion partners. Residues count along the entry.
UniProt P25774, 115-331: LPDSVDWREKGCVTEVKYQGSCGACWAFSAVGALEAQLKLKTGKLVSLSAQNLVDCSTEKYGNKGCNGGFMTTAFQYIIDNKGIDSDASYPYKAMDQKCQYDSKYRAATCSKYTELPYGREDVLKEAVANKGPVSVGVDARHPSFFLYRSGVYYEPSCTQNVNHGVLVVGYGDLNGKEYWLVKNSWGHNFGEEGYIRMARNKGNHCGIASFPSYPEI

Legend:
[1] = molecular target: T1, Human recombinant cathepsin S (Homo sapiens, UniProt P25774); assay: In vitro cathepsin Ki inhibition measurement, cathepsin S; format: biochemical
T1 construct: purchased Merck 219343; host or cells: E. coli
Protocol: Stock solutions of substrate or inhibitor were made up to 10 mM in 100% dimethylsulfoxide (DMSO) (Rathburns, Glasgow, U.K.) and diluted as appropriately required. In all cases the DMSO concentration in the assays was maintained at less than 1% (vol./vol.). The equilibrium inhibition constants (Ki^ss) for each compound were measured under steady-state conditions monitoring enzyme activity as a function of inhibitor concentration. […] The apparent inhibition constant (Ki) for each compound was determined on the basis that inhibition was reversible and occurred by a pure-competitive mechanism. […] Biophys. […] Curves were fitted by non-linear regression analysis (Prism) using a fixed value for the enzyme concentration.

[2] = molecular target: T2, Human recombinant cathepsin K (Homo sapiens, UniProt P43235); assay: In vitro cathepsin Ki inhibition measurement, cathepsin K; format: biochemical
T2 sequence (P43235 115-329): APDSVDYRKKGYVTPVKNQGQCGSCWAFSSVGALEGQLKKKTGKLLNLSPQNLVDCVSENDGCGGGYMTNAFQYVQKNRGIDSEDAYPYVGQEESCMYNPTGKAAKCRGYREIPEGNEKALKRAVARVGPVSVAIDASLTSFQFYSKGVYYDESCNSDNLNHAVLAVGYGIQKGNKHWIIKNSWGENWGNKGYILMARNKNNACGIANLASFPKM
Protocol: Stock solutions of substrate or inhibitor were made up to 10 mM in 100% dimethylsulfoxide (DMSO) (Rathburns, Glasgow, U.K.) and diluted as appropriately required. In all cases the DMSO concentration in the assays was maintained at less than 1% (vol./vol.). The equilibrium inhibition constants (Ki^ss) for each compound were measured under steady-state conditions monitoring enzyme activity as a function of inhibitor concentration. […] B. […] The apparent inhibition constant (Ki) for each compound was determined on the basis that inhibition was reversible and occurred by a pure-competitive mechanism. […] F. Trends Biochem. […] Morrison, J. F. Biochim. Biophys. […] Curves were fitted by non-linear regression analysis (Prism) using a fixed value for the enzyme concentration.

[3] = relative to prior art compound (38)

Row | Compound | fold improvement in in vitro potency against human cathepsin S [1, 3] [fold] | fold improvement in in vitro potency against human cathepsin S ([1]; relative to Compound 1) [fold] | fold improvement in in vitro potency against human cathepsin K ([2]; relative to Compound 1) [fold] | fold improvement in in vitro potency against human cathepsin K [2, 3]
1 | O=C(N[C@H](C(=O)N1CC[C@H]2OCC(=O)[C@H]21)C1CCCCC1)c1ccccc1 [Compound 1] | 2.5 | – | – | –
2 | O=C(N[C@H](C(=O)N1C[C@H](Cl)[C@H]2OCC(=O)[C@H]21)C1CCCCC1)c1ccccc1 [EXAMPLE 1, N—((S)-2-((3aS,6S,6aS)-6-chloro-3-oxodihydro-2H-furo[3,2-b]pyrrol-4(5H,6H,6aH)-yl)-1-cyclohexyl-2-oxoethyl)benzamide] | 65 | 27 | 8.7 | greater than 114 fold
